Literature values in patent US20230349886A1, “SYSTEMS AND METHODS FOR PREDICTING CARDIOTOXICITY OF MOLECULAR PARAMETERS OF A COMPOUND BASED ON MACHINE LEARNING ALGORITHMS” (UTI Limited Partnership, priority 2015, published 2023).

Amino acid sequences for entries named in this document (tags omitted). A change or cut given only in a name is not applied to a line headed by its entry.
UniProt Q12809: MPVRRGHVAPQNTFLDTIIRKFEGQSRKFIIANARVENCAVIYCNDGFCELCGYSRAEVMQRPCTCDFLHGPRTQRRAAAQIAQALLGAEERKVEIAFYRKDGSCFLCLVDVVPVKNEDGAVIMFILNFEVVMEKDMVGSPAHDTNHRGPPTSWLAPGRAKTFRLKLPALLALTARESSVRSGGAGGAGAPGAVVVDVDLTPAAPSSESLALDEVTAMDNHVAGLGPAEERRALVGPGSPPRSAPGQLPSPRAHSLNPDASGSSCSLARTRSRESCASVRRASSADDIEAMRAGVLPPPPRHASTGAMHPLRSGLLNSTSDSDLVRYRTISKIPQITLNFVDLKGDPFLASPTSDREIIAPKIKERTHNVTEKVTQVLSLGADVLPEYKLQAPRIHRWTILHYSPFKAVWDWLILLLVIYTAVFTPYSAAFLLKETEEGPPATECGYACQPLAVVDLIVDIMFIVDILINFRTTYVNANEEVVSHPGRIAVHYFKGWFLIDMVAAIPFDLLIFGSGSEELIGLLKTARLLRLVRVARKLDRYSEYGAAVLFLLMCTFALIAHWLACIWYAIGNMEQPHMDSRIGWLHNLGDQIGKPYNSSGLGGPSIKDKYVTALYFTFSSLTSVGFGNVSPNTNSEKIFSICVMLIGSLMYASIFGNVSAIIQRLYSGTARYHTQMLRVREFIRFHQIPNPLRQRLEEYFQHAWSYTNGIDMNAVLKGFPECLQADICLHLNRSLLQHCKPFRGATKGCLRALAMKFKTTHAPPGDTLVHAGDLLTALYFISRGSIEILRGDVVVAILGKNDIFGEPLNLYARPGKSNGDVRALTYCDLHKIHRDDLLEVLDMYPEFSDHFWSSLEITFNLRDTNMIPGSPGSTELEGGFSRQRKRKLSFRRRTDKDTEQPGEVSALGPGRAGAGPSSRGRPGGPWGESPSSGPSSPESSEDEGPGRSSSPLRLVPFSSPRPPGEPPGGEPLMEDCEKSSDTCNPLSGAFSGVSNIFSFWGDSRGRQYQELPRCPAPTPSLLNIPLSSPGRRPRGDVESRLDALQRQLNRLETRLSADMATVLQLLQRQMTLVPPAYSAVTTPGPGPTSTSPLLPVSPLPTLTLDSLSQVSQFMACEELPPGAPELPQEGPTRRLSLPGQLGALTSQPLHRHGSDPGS

Target: hERG (Homo sapiens, UniProt Q12809)
Throughout, for HERG maxInhib: test concentration or dose not given here.

In the case of `COc1cc(N)c(Cl)cc1C(=O)NC1CCN(CCCOc2ccc(F)cc2)CC1OC` (centres unmarked) [cisapride], the “HERG maxInhib” value is given as 82.1.

For `Cc1cn(-c2cc(NC(=O)c3ccc(C)c(Nc4nccc(-c5cccnc5)n4)c3)cc(C(F)(F)F)c2)cn1` [nilotinib], the “HERG maxInhib” value (Brown dataset) is listed as 68.2, the “HERG pIC50” value (Brown dataset) is listed as 6 and the pIC50 (Table 11, calculated from HERG-IC50 of the Kramer et al. 2013 data) is listed as 6. For the same compound, the IC50 (read-out: HERG IC50, Brown dataset) was 1000 nM.

Like-named read-outs stand apart in the source and are kept apart here.
